In ChEMBL document CHEMBL5726931, “Compounds” (2019) one finds IC50 data, which are given here for three compounds.

The chains behind the UniProt entries cited, without tags or fusion partners.
UniProt Q96KS0, whole entry: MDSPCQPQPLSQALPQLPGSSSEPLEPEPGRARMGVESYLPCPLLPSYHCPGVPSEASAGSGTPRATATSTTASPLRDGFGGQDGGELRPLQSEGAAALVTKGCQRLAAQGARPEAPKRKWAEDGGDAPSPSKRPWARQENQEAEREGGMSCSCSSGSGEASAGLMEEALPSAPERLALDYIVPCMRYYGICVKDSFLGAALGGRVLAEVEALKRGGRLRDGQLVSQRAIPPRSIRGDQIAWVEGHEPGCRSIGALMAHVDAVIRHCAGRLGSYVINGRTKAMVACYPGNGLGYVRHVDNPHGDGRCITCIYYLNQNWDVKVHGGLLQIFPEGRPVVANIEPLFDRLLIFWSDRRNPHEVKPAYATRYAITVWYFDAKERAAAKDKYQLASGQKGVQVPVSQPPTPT

Broadly, the pIC50 is the IC50 on a negative log10 scale, so that one unit is a factor of ten. Read a low pIC50 as a high IC50.

pIC50: −log10 of the molar value.

The target of the assay is Prolyl hydroxylase EGLN2 (Homo sapiens, UniProt Q96KS0). The experiment in a line: PHD1 Enzyme Assay: The IC50 values for the PHD1 enzyme (residues 1-407) were determined by mixing increasing amounts of a compound of the invention with a fixed amount of the enzyme (20 nM final concentration) and peptide substrate (Asp-Leu-Asp-Leu-Glu-Ala-Leu-Ala-Pro-Tyr-Ile-Pro-Ala-Asp-Asp-Asp-Phe-Gln-Leu, 1 μM final concentration) and 2-oxoglutarate (0.5 M final concentration) in an assay ….
For `N#Cc1ccc(-c2cc(NC(=O)CC(F)(F)F)cc3ncnn23)cc1`, the pIC50 is 7.55. The figure for `CC(C)(C)OC(=O)Nc1cc(-c2ccc(C#N)cc2)n2ncnc2c1` is 7.28. The figure for `N#Cc1ccc(-c2cc(OCc3ccccc3)cc3ncnn23)cc1` is 7.31.
